According to patent US20030064380A1, “Anergy-regulated molecules” (The Center For Blood Research, Inc., priority 2001, published 2003):

Tested on: D5 T cells
Experiment: proliferation assay (3H-thymidine) of D5 T cells after ionomycin pretreatment
Assay type: cell-based, murine
Protocol: D5 or primary T cells were stimulated with APC and antigen and pulsed for 24 hours with 10 μCi/ml ^3H-thymidine. DNA was collected using a cell harvester and the amount of radioactivity incorporated was measured in a β-counter.
The murine antigen-specific Th1 clone D5 was used to set up the model of clonal anergy developed by Schwartz and coworkers (Schwartz, (1996) J. Exp. Med. 184: 1-8).

“IL-2: cytokine; exposure to it overcame anergy” was tested, and the “anergy of ionomycin-pretreated D5 T cells on exposure” value was “overcome”.
